What was measured:
[1] = target: Muscarinic acetylcholine receptor M1 (Homo sapiens, UniProt P11229); test: Displacement of [3H]NMS from human muscarinic M1 receptor expressed in CHO-K1 cells after 16 hrs by scintillation proximity assay; assay type: cell-based
[2] = target: Muscarinic acetylcholine receptor M4 (Homo sapiens, UniProt P08173); test: Displacement of [3H]NMS from human muscarinic M4 receptor expressed in CHO-K1 cells after 16 hrs by scintillation proximity assay; assay type: cell-based

Sequences of proteins named here, by UniProt entry; tags and fusion partners are left off. A change or cut given only in a name is not applied to a line headed by its entry.
UniProt P11229: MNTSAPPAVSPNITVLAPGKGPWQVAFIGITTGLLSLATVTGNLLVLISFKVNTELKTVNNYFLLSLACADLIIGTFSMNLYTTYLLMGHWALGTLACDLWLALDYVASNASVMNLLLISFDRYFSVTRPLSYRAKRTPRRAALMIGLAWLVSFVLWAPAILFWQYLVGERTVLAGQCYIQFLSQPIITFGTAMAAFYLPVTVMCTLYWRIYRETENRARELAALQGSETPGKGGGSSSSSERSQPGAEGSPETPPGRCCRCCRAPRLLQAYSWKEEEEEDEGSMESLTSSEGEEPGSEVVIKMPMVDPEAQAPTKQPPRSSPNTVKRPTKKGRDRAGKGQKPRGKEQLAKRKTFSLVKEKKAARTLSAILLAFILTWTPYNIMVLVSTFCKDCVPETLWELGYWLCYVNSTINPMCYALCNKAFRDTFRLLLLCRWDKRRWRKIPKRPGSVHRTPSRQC
UniProt P08173, whole entry: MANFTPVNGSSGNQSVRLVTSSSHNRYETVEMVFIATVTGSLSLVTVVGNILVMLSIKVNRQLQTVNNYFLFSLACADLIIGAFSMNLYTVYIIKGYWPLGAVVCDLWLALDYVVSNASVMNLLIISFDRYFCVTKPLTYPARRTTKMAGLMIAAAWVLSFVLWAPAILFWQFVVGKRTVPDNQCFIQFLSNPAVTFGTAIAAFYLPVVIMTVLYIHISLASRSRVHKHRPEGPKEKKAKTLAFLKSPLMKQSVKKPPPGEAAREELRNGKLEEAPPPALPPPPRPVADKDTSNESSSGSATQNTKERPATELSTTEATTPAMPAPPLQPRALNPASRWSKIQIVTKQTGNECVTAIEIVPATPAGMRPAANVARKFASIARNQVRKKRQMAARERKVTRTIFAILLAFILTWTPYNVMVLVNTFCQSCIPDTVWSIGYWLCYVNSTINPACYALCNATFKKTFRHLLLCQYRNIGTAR

Structure (SMILES): C[N+]1(C)CCC(OC(=O)C(O)(c2ccccc2)C2CCCC2)C1 (configuration not stated) [GLYCOPYRRONIUM BROMIDE]
- IC50 [1]: 0.126 nM
- IC50 [2]: 0.158 nM
